Positions count from the first letter of the chain named.

The target in assay [1] is T1, HDAC8M274A (Homo sapiens, UniProt Q9BY41, M274A).
T1 sequence (Q9BY41 1-377 M274A): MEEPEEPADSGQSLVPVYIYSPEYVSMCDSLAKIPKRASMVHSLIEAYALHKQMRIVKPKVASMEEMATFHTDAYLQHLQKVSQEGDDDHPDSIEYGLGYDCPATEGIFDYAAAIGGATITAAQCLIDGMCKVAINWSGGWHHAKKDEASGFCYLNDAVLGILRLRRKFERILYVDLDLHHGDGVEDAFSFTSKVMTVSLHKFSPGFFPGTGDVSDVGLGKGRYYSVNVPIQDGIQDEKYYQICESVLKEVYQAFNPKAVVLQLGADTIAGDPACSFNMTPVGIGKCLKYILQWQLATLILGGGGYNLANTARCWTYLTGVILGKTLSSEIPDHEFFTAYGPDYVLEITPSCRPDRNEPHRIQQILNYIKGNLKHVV
The assay can be described thus: biochemical. The conditions noted are these: read-out: kon (rate constant of association).

In another assay the target is T2, HDAC8wt (Homo sapiens, UniProt Q9BY41).
T2 sequence (Q9BY41 1-377): T1 sequence (Q9BY41 1-377 M274A) with A274M
The assay is described as follows: biochemical. The conditions noted are these: read-out: kon (rate constant of association).

Assay [2] addresses T1, HDAC8M274A. The assay can be described thus: Enzyme activity assay, IC50 determination with Boc-Lys(TFA)-AMC.

As usually defined, the kon is the second-order rate constant of association. Consider `O=C(NO)c1cccc(-c2cn(CSc3ccccc3)nn2)c1` [NCC-149], for which the kon at HDAC8M274A [1] is 1.92e+06 ± 60000 M⁻¹ s⁻¹; on HDAC8wt, 3.9e+06 ± 300000 M⁻¹ s⁻¹. As usually defined, the IC50 is the concentration at which inhibition is half-maximal. Read a high IC50 as lower potency. Molecule `O=C(CCCCCCC(=O)Nc1ccccc1)NO` [SAHA, suberoylanilide hydroxamic acid] returned an IC50 at HDAC8M274A [2] of 11 µM.

These data come from publication PMC9569839, “Methionine 274 Is Not the Determining Factor for Selective Inhibition of Histone Deacetylase 8 (HDAC8) by L-Shaped Inhibitors” (International Journal of Molecular Sciences, 2022).
